Measured values taken from patent publication EP1870419A2, “Modulators of beta-amyloid peptide aggregation comprising D-amino acids” (Praecis Pharmaceuticals Incorporated, priority 1999, dated 2000).

The chains behind the UniProt entries cited, without tags or fusion partners. Residues count along the entry.
UniProt P05067, 672-711: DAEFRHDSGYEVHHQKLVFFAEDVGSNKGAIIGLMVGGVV

Target: T1, Aβ fibrils (Homo sapiens, UniProt P05067)
T1 construct: aging 1 ml aliquots of a 200 µM Aβ 1-40 peptide solution
Assay: Fibril binding assay (competition with radiolabelled compound, filtration)
Settings: Table I; read-out: Fibril binding Kd's cmpd
Description: The following materials are needed for the Fibril binding assay: Millipore multifilter apparatus; 12 x 75 glass tubes; GF/F 25 mm glass filters; PBS/0.1 % tween 20 at 4°C (PBST); Aβ fibrils; radioactive compound; nonradioactive compound; Eppendorf repeat pipettor with tips; labels; forceps; and vacuum.
In this assay, each sample is run in triplicate. The "aged" Aβ fibril is first prepared approximately 8 days in advance by aging 1 ml aliquots of a 200 µM Aβ 1-40 peptide solution in 4%DMSO/PBS for 8 days at 37°C with rocking. Such "aged" Aβ peptide can be tested directly on cells or frozen at -80°C.
The 200 µM Aβ fibril is diluted in PBST to yield a 4 µM solution (320 µl in 16 ml PBST). 100µl aliquots of this solution are added per tube with the repeat pipettor.
The β-amyloid modulator compound (200µL) is then added to the appropriate tube containing the Aβ fibril.
The radioactively labeled β-amyloid modulator compound is prepared using standard radioactive safety protocols by making a dilution into a PBS/0.1% tween-20 solution such that there is a final concentration of 20,000 dpm per 100 µL. 100 µl aliqouots of the radioactively labeled β-amyloid modulator compound are added per tube using the repeat pipettor. The samples are covered with parafilm and incubated at 37 °C inside plastic radioactivity bags overnight.
To filter the samples, the filters are pre-wetted in a small volume of PBST. Two Millipore multifiltration apparati are set with GF/F filters in each filtration slot following the instructions from the manufacturer. The samples are removed from the 37 °C incubator and each sample is filtered using a small volume (~5 ml) of cold PBST buffer. The sample tube is then washed with two additional 5 mL volumes of cold PBST buffer. The vacuum is allowed to pull to a semi dry filter for approximately 2 minutes after adding the last sample and the filter is transferred to a labelled tube for iodination counting. One minute counts are recorded, the data is plotted, and the Prism program (GraphPAD) is used to analyze the graph, according to the manufacturer's instrutions.

Q: “TFA·1-piperidine-acetyl-(lffvl)-NH2 [PPI-1089]” was tested. Which Kd did it give?
A: 0.57 nM

Q: With “TFA·1-piperidine-acetyl-(lvffl)-NH2 [PPI-1088]” as the substance, how does the Kd read?
A: 3.4 nM

Q: How did the Kd turn out when “TFA·H-( D-Nle-vff- D-Nle)-NH2 [PPI-1042]” was run?
A: 0.234 nM

Q: Which Kd does the source give for TFA·H-(D-Nle-vffa)-NH2 [PPI-1041] here?
A: 1.61 nM

Q: Which Kd does the source give for TFA·H-(Glvffl)-NH2 [PPI-1013] here?
A: 0.247 nM

Q: TFA·H-(iiffi)-NH2 [PPI-1040] was tested. Which Kd did it give?
A: 0.408 nM

Q: For TFA·H-(ivffa)-NH2 [PPI-1039], which Kd is on record?
A: 2.44 nM

Q: With TFA·H-(ivffi)-NH2 [PPI-1038] as the substance, how does the Kd read?
A: 0.652 nM

Q: For TFA·H-(lvffa)-isopropylamide [PPI-992], which Kd is on record?
A: 2.43 nM

Q: TFA·H-lvffl-isopropylamide [PPI-1093] was tested. Which Kd did it give?
A: 1.02 nM

Q: Which Kd does the source give for TFA·N,N-diethyl-(Glvffl)-NH2 [PPI-1028] here?
A: 0.49 nM

Q: Which Kd does the source give for TFA·N,N-dimethyl-(lffvl)-NH2 [PPI-1008] here?
A: 1.75 nM

Q: For TFA·N,N-dimethyl-(lvffl)-NH2 [PPI-1007], which Kd is on record?
A: 0.864 nM and 0.627 nM

Q: How did the Kd turn out when TFA·N-ethyl-(Gaffvl)-NH2 [PPI-969] was run?
A: 1.13 nM

Q: TFA·N-ethyl-(Giffvl)-NH2 [PPI-1018] was tested. Which Kd did it give?
A: 0.701 nM

Q: With TFA·N-ethyl-(Glvffl)-NH2 [PPI-1017] as the substance, how does the Kd read?
A: 0.389 nM

Q: How did the Kd turn out when TFA·N-ethyl-(IvfH)-NH2 [PPI-1022] was run?
A: 0.15 nM

Q: How did the Kd turn out when TFA·N-methyl-(lffvl)-NH2 [PPI-1020] was run?
A: 0.601 nM

Q: Which Kd does the source give for TFA·N-propyl-(lvffl)-NH2 [PPI-1025] here?
A: 0.43 nM

Q: With TFA•H-(lffvl)-methylamide [PPI-1180] as the substance, how does the Kd read?
A: 0.33 nM

Q: For TFA•H-(lvffl)-OH [PPI-1261], which Kd is on record?
A: 11.2 nM

Q: With TFA•H-(lvffl)-methylamide [PPI-1179] as the substance, how does the Kd read?
A: 0.604 nM

Q: Which Kd does the source give for TFA•H-lffvl-isopropylamide [PPI-1094] here?
A: 3.7 nM

Same assay, conditions: Table II; read-out: Fibril binding Kd's cmpd

Q: With 2 TFA·H-lvf-NH-NH-fvl-H [PPI-1125] as the substance, how does the Kd read?
A: 1.27 nM and 1.34 nM

Q: For 2TFA·H-(lkfvl)-NH2 [PPI-1325], which Kd is on record?
A: 1.4 nM

Q: TFA-H-lvf-NH-NH2 [PPI-1155] was tested. Which Kd did it give?
A: 124 nM

Q: With TFA·H-(l-D-Cha-D-Cha-vl)-NH2 [PPI-1326] as the substance, how does the Kd read?
A: 0.56 nM

Q: TFA·H-(l-D-Cha-fvl)-NH2 [PPI-1322] was tested. Which Kd did it give?
A: 1.2 nM

Q: With TFA·H-(l-[F5]f-[F5]f-vl)-NH2 [PPI-1328] as the substance, how does the Kd read?
A: 2.4 nM

Q: “TFA·H-(l-[p-F]f-[p-F]f-vl)-NH2 [PPI-1327]” was tested. Which Kd did it give?
A: 0.82 nM

Q: How did the Kd turn out when TFA·H-(lf-[F5]f-vl)-NH2 [PPI-1320] was run?
A: 1.4 nM

Q: With TFA·H-lvf-NH-NH-Acetyl [PPI-1133] as the substance, how does the Kd read?
A: 318 nM

Q: How did the Kd turn out when TFA•H-(lvf-D-Cha-l)-NH2 [PPI-1301] was run?
A: 1.1 nM

Q: For TFA•H-(lvf-[F5]f-l)-NH2 [PPI-1303], which Kd is on record?
A: 1.1 nM

Q: For TFA•H-(lvf-[p-F]f-l)-NH2 [PPI-1302], which Kd is on record?
A: 0.22 nM

Q: With TFA•N-methyl-(lvffl)-NH2 [PPI-1019] as the substance, how does the Kd read?
A: 0.411 nM and 0.534 nM

Same assay, conditions: Table III; 3-point assay, approximate; read-out: Fibril binding Kd's cmpd

Q: For TFA· Me-(lvffl)-NH-OH [PPI-1800], which Kd is on record?
A: ~4 nM

Q: With TFA• Me-(lvff-[nle])-NH2 [PPI-1788] as the substance, how does the Kd read?
A: ~4 nM

Same assay, conditions: Table III; read-out: Fibril binding Kd's cmpd

Q: How did the Kd turn out when 2TFA • H-LVF-NH-NH-FVL-H [PPI-1619] was run?
A: 35 nM

Q: 2TFA •H-LVF-NH-NH-fvl-H [PPI-1621] was tested. Which Kd did it give?
A: 8.7 nM

Q: Which Kd does the source give for “TFA • H-l-[pF]f-[pF]f-(nvl)-l-NH2 [PPI-1637]” here?
A: 1.8 nM

Q: TFA • H-lff-(nvl)-l-NH2 [PPI-1635] was tested. Which Kd did it give?
A: 1.4 nM

Q: TFA • H-lvffl-NH-CH2CH2-NH2 [PPI-1465] was tested. Which Kd did it give?
A: 3.6 nM

Q: TFA• Me-(lv-[p-F]f-fl)-NH2 [PPI-1784] was tested. Which Kd did it give?
A: 2.5 nM

Q: How did the Kd turn out when TFA•H-(lv-[p-F]f-fl)-NH2 [PPI-1785] was run?
A: 2.8 nM

Q: For TFA•Me-lvff-[nvl])-NH2 [PPI-1787], which Kd is on record?
A: 5.8 nM

Several values for one entry are separate records, joined by “and”; a condition that tells them apart may be missing. Identical values can stand only once.
